The text below walks through data of patent publication US20250340565A1, “CD73 INHIBITOR COMPOUNDS” (AdoRx Therapeutics Limited, priority 2022, published 2025).

Protein sequences, listed by entry. Tags and fused reporters are not part of them. Residues count along the entry.
UniProt P21589, 27-574 limits assumed: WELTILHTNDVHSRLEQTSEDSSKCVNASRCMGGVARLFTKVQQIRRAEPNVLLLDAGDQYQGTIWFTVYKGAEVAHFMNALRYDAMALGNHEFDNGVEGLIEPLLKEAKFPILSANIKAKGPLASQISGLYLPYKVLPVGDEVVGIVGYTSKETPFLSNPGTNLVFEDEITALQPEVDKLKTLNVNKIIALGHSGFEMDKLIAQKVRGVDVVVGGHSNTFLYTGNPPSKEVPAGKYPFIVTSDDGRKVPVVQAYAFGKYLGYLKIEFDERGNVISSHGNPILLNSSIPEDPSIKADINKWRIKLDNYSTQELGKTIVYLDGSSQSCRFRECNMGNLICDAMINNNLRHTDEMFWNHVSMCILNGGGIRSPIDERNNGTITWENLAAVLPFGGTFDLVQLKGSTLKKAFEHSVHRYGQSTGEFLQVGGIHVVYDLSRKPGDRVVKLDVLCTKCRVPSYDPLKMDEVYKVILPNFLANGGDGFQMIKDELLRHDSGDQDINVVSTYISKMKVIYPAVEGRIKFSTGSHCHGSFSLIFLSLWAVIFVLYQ
UniProt P21589, 27-549 limits assumed: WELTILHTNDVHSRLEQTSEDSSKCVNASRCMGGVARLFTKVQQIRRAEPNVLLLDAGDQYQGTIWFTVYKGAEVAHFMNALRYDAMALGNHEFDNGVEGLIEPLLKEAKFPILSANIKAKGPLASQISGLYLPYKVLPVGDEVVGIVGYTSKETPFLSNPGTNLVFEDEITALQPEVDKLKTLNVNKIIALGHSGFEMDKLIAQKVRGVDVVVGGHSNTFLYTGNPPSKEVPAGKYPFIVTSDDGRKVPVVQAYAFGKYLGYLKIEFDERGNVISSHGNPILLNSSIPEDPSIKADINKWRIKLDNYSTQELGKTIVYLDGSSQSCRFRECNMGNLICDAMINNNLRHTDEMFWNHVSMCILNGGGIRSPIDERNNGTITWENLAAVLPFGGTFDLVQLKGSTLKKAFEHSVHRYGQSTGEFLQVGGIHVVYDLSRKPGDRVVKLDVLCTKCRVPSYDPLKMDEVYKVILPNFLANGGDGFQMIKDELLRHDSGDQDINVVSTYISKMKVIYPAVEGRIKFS

Test [1] has as its target CD73 activity in U138-MG cells (Homo sapiens (Human), UniProt P21589). The test can be described thus: U138-MG inhibition assay (inorganic phosphate from AMP, PiColorLock Gold). The conditions noted are these: 100 μM AMP, 30 min pre-incubation, 1 hour at 37° C. The protocol:
U138-MG cells from ATCC are cultured in DMEM (Gibco 31966) with 10% FBS. Cells are seeded into 96-well culture plates (5,000 cell/well) in 100 μL of media for 24 hr. Cells are washed twice with 200 μL of assay buffer (20 mM HEPES, pH 7.4; 137 mM NaCl; 5.4 mM KCl; 1.3 mM CaCl2; 4.2 mM NaHCO3; 1 mg/mL glucose) to remove residual inorganic phosphate. CD73 inhibitor is added to each well in 100 μl volume and preincubated for 30 mins at 37° C. An equal volume of AMP substrate (Sigma A1572) is added to each well at a final concentration of 100 μM and incubated at 37° C. for 1 hour. Control wells containing cells but lacking added AMP, define the assay signal equivalent to 100% inhibition of CD73 activity. Supernatant is removed for measurement of inorganic phosphate using the PiColorLock Gold kit (Abcam, ab 270004).
The IC50 values of test compounds are determined as the inflection point of the sigmoidal concentration response curve.

Test [2] concerns the target human (h)CD73 (amino acids Trp27-Lys547) (Homo sapiens, UniProt P21589). The test can be described thus: CD73 inhibition assay (Malachite Green phosphate detection). The conditions noted are these: 250 pM hCD73, 12.5 μM AMP, 20 min pre-incubation, absorbance 620 nm. The protocol: Compound inhibition of human (h)CD73 (amino acids Trp27-Lys547, R&D Systems 5795-EN-500) enzymatic activity was tested via the Malachite Green Phosphate Detection Kit (R&D DY996). Experiments were performed in 20 μL Tris buffer (25 mM Tris pH 7.5, 5 mM MgCl2, 0.002% Tween20), with 250 pM of hCD73. Test compounds of interest were prepared in a threefold serial dilution in DMSO and added to the assay to give the appropriate final concentration, with the assay DMSO concentration being 1%. Compounds were pre-incubated for 20 minutes with hCD73 in a 384 well clear plate (Greiner 781101), followed by the addition of adenosine monophosphate (AMP) to 12.5 μM. The enzymatic reaction was carried out for 20 min at room temperature. 5 μL of Malachite kit reagent A was added to stop the reaction (contains 3M H2SO4) and after 10 min, 5 μL of Malachite kit reagent B was added (Malachite Green). After 30 min, absorbance at 620 nm was read on a BMG Pherastar FSX.
Data were normalised to measurements in the absence of competing compound (0% inhibition) and in the presence of 10 μM control compound (100% inhibition). Competition curves were then fit to a 4-parameter logistic equation including a variable slope factor to determine the IC50 (compound concentration that inhibits 50% of 0073 activity).

Test [3] concerns the target CD73 in whole blood (Homo sapiens (Human), UniProt P21589). The test can be described thus: Whole blood AMP Glo assay. Particulars: whole blood of healthy volunteers, 10 μM AMP, 30 min pre-incubation, 15 min at 37° C., levamisole 1.5 mM. The protocol: Blood is drawn from healthy volunteers by venepuncture and anti-coagulated with Lithium Heparin (10 IU/mi). 150 μl of blood is added to U-bottom polypropylene 96-well assay plates pre-filled with 20 μl of compound dilutions prepared in RPMI also containing the Tissue Non-specific Alkaline Phosphatase inhibitor Levamisole (final assay concentration 1.5 mM). Control wells to define uninhibited CD73 contain DMSO in place of compound. Control wells to define complete stabilization of AMP attributable to CD73 contain LY3475070 (CAS: 2375815-63-5) at 30 μM final assay concentration.
Compounds are pre-incubated with whole blood at 37° C. for 30 minutes. Following this, AMP is added in a 30 μl volume for a final assay concentration of 10 μM, mixed, and the plates are incubated for 15 minutes at 37° C. Final DMSO concentration/well is 0.6% and final volume/well is 200 μL. After incubating with AMP, the plates are placed on ice and then centrifuged at 2000 g for 10 minutes at 4° C. […]
The stabilized AMP concentration in diluted plasma is measured using AMP-Glo kit (Promega), in parallel with a standard curve of known AMP concentrations, with a final volume of 40 μl in white flat bottom half-well 96-well plates (Corning). Signal is measured by Luminescence. The IC50 values of test compounds are determined as the inflection point of the sigmoidal concentration response curve.

`CC1(C)CN(c2ncc(Cl)c3nn(-c4c[nH]c(=O)[nH]c4=O)cc23)CC1(F)F`: the IC50 in test [1] was 4 nM; in test [2], 29.3 nM; in test [3], 13 nM.

One may read the IC50 as the midpoint of a concentration-inhibition curve. Low values mean higher potency, high ones lower potency.
